Values of other authors as cited in US20140301952A1, “MEASUREMENT OF BODY FLUID VOLUMES” (PHARMACOPHOTONICS, INC. D/B/A FAST DIAGNOSTICS, priority 2009, published 2014).
Where two headings read alike, the source gives them in different places.

albumin: common indicator molecule for the dilution technique, used labeled with I125/I131 or ICG
rate of leak into the interstitial space (patients with septic shock): 15 % per hour
rate of leak into the interstitial space (physiologic conditions): about 5 % per hour
